Patent publication US20240368275A1 (ELPIS BIOPHARMACEUTICALS, published 2024)

The chains behind the UniProt entries cited, without tags or fusion partners. Residues count along the entry.
UniProt P07766, 23-207 limits assumed: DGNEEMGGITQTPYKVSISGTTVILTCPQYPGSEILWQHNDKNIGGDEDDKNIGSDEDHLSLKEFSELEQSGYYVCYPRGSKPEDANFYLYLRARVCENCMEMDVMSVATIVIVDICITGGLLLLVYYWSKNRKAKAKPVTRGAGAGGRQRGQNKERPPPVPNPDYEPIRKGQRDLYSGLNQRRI

What was measured:
[1] = molecular target: T1, CD3 on Jurkat cells (UniProt P07766 23-207, limits assumed); assay: cell-based or functional assay
[2] = molecular target: T1, CD3 on Jurkat cells; assay: flow cytometry on Jurkat cells
Procedure: The engagement of the antibodies to CD3 has been assessed by FACS. Jurkat cells were plated at 100,000 cells/well in a 96-well plate with 50 μL of full media. Anti-Nectin4/CD3 antibodies were 3-fold serial titrated from 20 nM. 50 μL was added to the cells and incubated for 1 hours at room temperature with shaking. Samples were washed one time with flow buffer. […] Samples were washed once with flow buffer. Samples were stained with 100 uL Zombie Fixable Viability Dyes at 1:800 dilution per well and incubated in dark at room temperature for 30 mins. Samples were spun down at 1300 rpm for 5 minutes and washed once with 200 uL flow buffer. Reconstituted samples in 200 uL of flow buffer and read on Attune NxT cytometer. EC50 values for CD3 binding were calculated using Prism 8.1 software.

[3] = molecular target: T2, full-length human Nectin4 with C-terminal flag and Myc tags on CHO cells (human, UniProt Q96NY8 32-510); assay: flow cytometry on CHO/Nectin4 cells
T2 construct: whole, on cells; also called Nectin4/CHO; CHO/Nectin4; not shown: C-terminal flag and Myc tags of pCMV6-Entry vector
T2 sequence (looked up): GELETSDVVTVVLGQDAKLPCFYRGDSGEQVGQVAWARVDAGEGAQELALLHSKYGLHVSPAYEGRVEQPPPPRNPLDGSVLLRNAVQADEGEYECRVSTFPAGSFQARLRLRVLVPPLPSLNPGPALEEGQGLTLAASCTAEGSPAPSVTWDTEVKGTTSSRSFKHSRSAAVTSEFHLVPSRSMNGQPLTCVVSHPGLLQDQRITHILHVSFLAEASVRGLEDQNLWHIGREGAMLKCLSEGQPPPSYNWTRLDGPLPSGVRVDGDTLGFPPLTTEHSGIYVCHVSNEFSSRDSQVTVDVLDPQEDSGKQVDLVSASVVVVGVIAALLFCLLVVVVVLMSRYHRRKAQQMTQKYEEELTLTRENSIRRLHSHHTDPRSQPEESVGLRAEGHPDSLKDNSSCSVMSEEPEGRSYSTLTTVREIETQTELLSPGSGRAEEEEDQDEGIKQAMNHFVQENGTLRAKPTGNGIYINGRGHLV
Procedure: The binding activities of the bispecific antibodies to Nectin4 has been assessed by FACS. Nectin4/CHO Nectin4 cells were plated at 100,000 cells/well in a 96-well plate in 50 μL of full media. Cells were rested 1 hour at 37° C. Anti-Nectin4/CD3 was 3-fold serial titrated from 50 nM. 50 μL was added to the cells and incubated for 1 hours with shaking. Samples were washed one time with flow buffer. […] Samples were washed once with flow buffer. Samples were stained with 100 uL Zombie Fixable Viability Dyes (1:800 dilution) per well and incubated in dark at room temperature for 30 mins. Samples were spun down at 1200 rpm for 5 minutes and washed once with 200 uL flow buffer. Reconstituted samples in 200 uL of flow buffer and read on Attune NxT cytometer. EC₅₀ values for Nectin4 Binding were determined using Prism software. Similar method was used to determine the binding activities of antibodies to cancer cell line T47D and HT1376.

[4] = molecular target: T3, human Nectin4-HIS tagged recombinant protein (human, UniProt Q96NY8 32-349); assay: ELISA, coated Nectin4 HIS tagged protein, bispecific titrated, anti-Human HRP
T3 construct: also called hNectin4-HIS; Nectin4 HIS tagged protein; not shown: HIS tag
T3 sequence (looked up): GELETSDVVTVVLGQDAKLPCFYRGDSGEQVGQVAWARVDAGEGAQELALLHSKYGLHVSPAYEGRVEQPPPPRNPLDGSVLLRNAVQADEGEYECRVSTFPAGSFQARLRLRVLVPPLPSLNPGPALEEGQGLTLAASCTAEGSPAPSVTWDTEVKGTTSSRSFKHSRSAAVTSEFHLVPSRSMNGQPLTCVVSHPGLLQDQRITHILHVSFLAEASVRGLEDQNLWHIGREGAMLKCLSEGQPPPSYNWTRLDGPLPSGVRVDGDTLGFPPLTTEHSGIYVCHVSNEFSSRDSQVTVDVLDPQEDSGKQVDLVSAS
Procedure: An ELISA assay was developed to determine the EC₅₀ of anti-Nectin4/CD3 bispecific antibodies. Briefly, 384 well plate was immobilized with human CD3E or Nectin4 HIS tagged protein at final concentration of 2 ug/mL in 1×PBS in total volume of 25 uL per well. The plate was incubated overnight at 4° C. followed by blocking with 80 uL of superblock per well for 1 hour. Purified anti-Nectin4/CD3 was 3-fold serial titrated from 100 nM. 25 uL was added to human Nectin4/CD3 immobilized wells and incubated for 1 hour with shaking. The CD3E or Nectin4 binding was detected by adding 25 uL of anti-Human HRP diluted at 1:10000 in 1×PBST. In between each step, the plate was washed 3 times with […] in a plate washer. The plate was then developed with 20 ul of TMB substrate for 5 mins and stopped by adding 20 ul of 2N sulfuric acid. The plate was read at OD450 nm Biotek plate reader and then plotted in Prism 8.1 software to calculate EC50. Table 8 below show the binding activities of the bispecific antibodies to Nectin4 and CD3E via ELISA.

[5] = molecular target: T3, human Nectin4-HIS tagged recombinant …; assay: SPR Biacore T200, bispecific captured on Protein A chip, hNectin4-HIS injected
Procedure: Kinetic analysis of exemplary anti-Nectin4/CD3 bispecific antibodies to CD3E and Nectin4 has been assessed by SPR technology with Biacore T200. The assay was run with Biacore T200 control software version 2.0. For each cycle, 1 ug/mL of anti-hNectin4/CD3 antibody was captured for 60 seconds at flow rate of 10 ul/min on flow cell 2 in 1×HBSP buffer on Protein A sensor chip. 2-fold serial diluted CD3E-HIS or hNectin4-HIS tagged protein was injected onto both reference flow cell 1 and anti-Nectin4/CD3 bispecific captured flow cell 2 for 150 seconds at flow rate of 30 ul/mins followed by wash for 300 seconds. The flow cells were then regenerated with Glycine pH2 for 60 seconds at flow rate of 30 ul/mins. 8 concentration points from 100 nM-0 nM (CD3E-HIS) or 300 nM-0 nM (Nectin4-HIS) was assayed per anti-Nectin4 IgG in a 96 well plate. The kinetics of Anti-Nectin4/CD3 bispecific binding to CD3E and Nectin4 proteins was analyzed with Biacore T200 evaluation software version 3.0. The specific binding response unit was derived from subtraction of binding to reference flow cell 1 from antibody captured flow cell 2. Table 10 below listed the kinetics results. ND means not determined. NA means data not available.

B1: EP456/EP370/EP289 anti-Nectin4/CD3 bispecific antibody (bispecific antibody)
chain: not shown
heavy: EVQLVQSGAEVKKPGASVKVSCKASGYTFTGYYMHWVRQAPGQGLEWMGRINPNSGGTNYAQKFQGRVTMTRDTSISTAYMELSGLRSDDTAVYFCARVTYNIGWYIDYWGQGTLVTVSSASTKGPSVFPLAPSSKSTSGGTAALGCLVKDYFPEPVTVSWNSGALTSGVHTFPAVLQSSGLYSLSSVVTVPSSSLGTQTYICNVNHKPSNTKVDKKVEPKSCDKTHTCPPCPAPEAAGGPSVFLFPPKPKDTLMISRTPEVTCVVVDVSHEDPEVKFNWYVDGVEVHNAKTKPREEQYNSTYRVVSVLTVLHQDWLNGKEYKCKVSNKALGAPIEKTISKAKGQPREPQVCTLPPSRDELTKNQVSLSCAVKGFYPSDIAVEWESNGQPENNYKTTPPVLDSDGSFKLVSKLTVDKSRWQQGNVFSCSVMHEALHNHYTQKSLSLSPGK
light: QAVVTQPPSVSVAPGKTATITCGGNNIGSKGVHWYQQKPGQAPVLVIYYDTDRPSGIPERLSGSNSGNTATLTISRVEAGDEADYYCQVWDSSSDHPVFGGGTKLTVLGQPKANPTVTLFPPSSEELQANKATLVCLISDFYPGAVTVAWKADGSPVKAGVETTKPSKQSNNKYAASSYLSLTPEQWKSHRSYSCQVTHEGSTVEKTVAPTECS
- NFAT reporter EC50 [1]: 0.102 nM
- EC50 [2]: 1.03 nM
- EC50 [3]: 0.253 nM
- EC50 [4]: 0.014 nM
- Kd [5]: 4.23 nM
- koff [5]: 0.000412 s⁻¹
- kon [5]: 97400 M⁻¹ s⁻¹
